Data on one molecule can be found in patent US20150198612A1, “Isotopic Labelling of Proteins” (UNIVERSITY OF DUNDEE, priority 2012, published 2015).

Each structure is given as a SMILES string.

For this series, the system named is Cyp4a. Nature of the series: Western blot of liver drug metabolism enzymes, Cyp4a. The note with it: C57BL/6 mice liver, once daily i.p. for 3 days, single inducer.

Turning to `CO[C@H]1/C=C/O[C@@]2(C)Oc3c(C)c(O)c4c(O)c(c(/C=N/N5CCN(C)CC5)c(O)c4c3C2=O)NC(=O)/C(C)=C\C=C\[C@H](C)[C@H](O)[C@@H](C)[C@@H](O)[C@@H](C)[C@H](OC(C)=O)[C@@H]1C` [RIF, rafamycin], the Cyp4a expression entry is on record as “increased”.
